Laboratory results published in EP4682144A1, “SOLID FORM OF PYRROLIDONE DERIVATIVE AS GLUCOKINASE ACTIVATOR” (Hua Medicine (Shanghai) Ltd., priority 2023, dated 2024).

Experiments:
[1] = Dynamic vapour sorption (DVS) test; type: physicochemical; settings: 25 °C
Procedure: A dynamic vapour sorption (DVS) test was conducted on crystal form A of the free state and crystal form B of the hydrochloride.
A certain amount of powder was taken and put into a sample pan, and hygroscopicity of the sample was evaluated with DVS according to the following instrument method: […]

[2] = Stability test in simulated intestinal fluid (SIF); type: in vitro ADME
[3] = Stability test in simulated gastric fluid (SGF); type: in vitro ADME; settings: 24 hours

Row | SMILES | Water sorption capacity at 80%RH, % ([1]; 80%RH) | Water sorption capacity at 90%RH, % ([1]; 90%RH) | Water sorption capacity at 95%RH, % ([1]; 95%RH) | stability in SIF [2] | stability in SGF [3]
1 | CC(C)C[C@@H](C(=O)Nc1ccn(C[C@@H](O)COC(=O)c2cccnc2)n1)N1CC(Oc2ccccc2Cl)=CC1=O [Hydrochloride crystal form B] | 0.455% | 0.625% | 1.046% | – | –
2 | CC(C)C[C@@H](C(=O)Nc1ccn(C[C@@H](O)COC(=O)c2cccnc2)n1)N1CC(Oc2ccccc2Cl)=CC1=O [Compound A, (R)-3-(3-((S)-2-(4-(2-chlorophenoxy)-2-oxo-2,5-dihydro-1H-pyrrol-1-yl)-4-methylpentanamido)-1H-pyrazol-1-yl)-2-hydroxypropyl nicotinate] | – | – | – | extensively degraded | stable

Counter-ions that a name gives are not always drawn.
